Laboratory results from patent US20210269848A1, “COMPOSITION OF MICROORGANISMS INDICATING DECONTAMINATION” (NOVOLYZE, priority 2018, published 2021).

System: indicator microorganisms

## CCN(Cc1cccc(S(=O)(=O)O)c1)c1ccc(C(=C2C=CC(=[N+](CC)Cc3cccc(S(=O)(=O)O)c3)C=C2)c2ccccc2S(=O)(=O)[O-])cc1 [brilliant blue FCF]
  effect on resistance of the indicator microorganisms to decontamination processes: increases their resistance to decontamination processes
